Records with an inconclusive call do not appear.
Test system: Mycobacterium tuberculosis non-replicating, growth inhibition
Test: growth inhibition of non-replicating M. tuberculosis (AID 488890)

Row | Compound | IC50 [nM]
1 | O=C(Nc1ccc(Br)cn1)c1ccc([N+](=O)[O-])o1 | 920
2 | Cc1[nH]n(-c2ccccc2)c(=O)c1C=Nc1ccc(S(=O)(=O)Nc2nccs2)cc1 | 4230
3 | O=C(Nc1cccnc1)c1ccc([N+](=O)[O-])s1 | 2810

Source: PubChem BioAssay AID488890 (Southern Research Specialized Biocontainment Screening …, 2010)
